This note sets out measurements from patent US9518026B2, “5-aminopyrazole-4-carboxamide inhibitors of CDPK1 from T. gondii and C. parvum” (UNIVERSITY OF WASHINGTON THROUGH ITS CENTER FOR …, priority 2013, dated 2016).

By UniProt entry, the sequences of proteins in these tests, tags left out. Where a name states a change or a piece, a line headed by the entry shows the natural chain unless it says otherwise. Residues count along the entry.
UniProt A3FQ16, 1-538: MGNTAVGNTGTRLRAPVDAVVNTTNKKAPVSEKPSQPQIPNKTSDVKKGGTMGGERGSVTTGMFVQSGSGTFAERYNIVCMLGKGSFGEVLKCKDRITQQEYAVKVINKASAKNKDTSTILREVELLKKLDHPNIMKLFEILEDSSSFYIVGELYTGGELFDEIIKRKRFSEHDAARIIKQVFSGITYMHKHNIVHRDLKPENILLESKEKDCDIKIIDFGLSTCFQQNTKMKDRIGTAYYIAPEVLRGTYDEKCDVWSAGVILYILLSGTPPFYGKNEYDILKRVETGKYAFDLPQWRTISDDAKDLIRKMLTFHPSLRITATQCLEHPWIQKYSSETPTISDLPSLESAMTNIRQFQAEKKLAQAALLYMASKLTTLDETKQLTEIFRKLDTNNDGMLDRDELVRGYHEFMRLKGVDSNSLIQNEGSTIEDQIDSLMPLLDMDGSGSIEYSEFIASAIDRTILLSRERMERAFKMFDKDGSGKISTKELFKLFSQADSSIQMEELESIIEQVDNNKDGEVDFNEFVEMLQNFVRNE
UniProt P00519, 242-493: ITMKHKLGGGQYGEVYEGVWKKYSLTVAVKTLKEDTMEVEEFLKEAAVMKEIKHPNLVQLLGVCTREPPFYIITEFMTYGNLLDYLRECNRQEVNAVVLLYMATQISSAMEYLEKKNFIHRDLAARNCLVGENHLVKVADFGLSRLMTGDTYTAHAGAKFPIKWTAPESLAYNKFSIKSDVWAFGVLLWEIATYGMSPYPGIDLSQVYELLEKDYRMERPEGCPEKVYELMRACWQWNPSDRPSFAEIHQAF
UniProt Q9BJF5, 1-507: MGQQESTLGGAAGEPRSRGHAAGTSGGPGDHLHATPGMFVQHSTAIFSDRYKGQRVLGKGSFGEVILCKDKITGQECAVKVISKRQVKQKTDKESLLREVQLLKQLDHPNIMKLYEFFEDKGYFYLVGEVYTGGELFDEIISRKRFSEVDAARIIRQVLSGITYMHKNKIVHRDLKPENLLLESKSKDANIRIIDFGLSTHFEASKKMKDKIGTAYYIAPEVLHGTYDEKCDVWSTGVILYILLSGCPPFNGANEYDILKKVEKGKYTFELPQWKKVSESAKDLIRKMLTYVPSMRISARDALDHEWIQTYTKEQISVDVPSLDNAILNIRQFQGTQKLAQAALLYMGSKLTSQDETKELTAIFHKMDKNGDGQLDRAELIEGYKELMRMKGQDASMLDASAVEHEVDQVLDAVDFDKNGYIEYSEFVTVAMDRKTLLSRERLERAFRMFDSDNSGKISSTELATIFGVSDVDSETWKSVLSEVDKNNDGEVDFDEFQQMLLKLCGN
UniProt Q12809: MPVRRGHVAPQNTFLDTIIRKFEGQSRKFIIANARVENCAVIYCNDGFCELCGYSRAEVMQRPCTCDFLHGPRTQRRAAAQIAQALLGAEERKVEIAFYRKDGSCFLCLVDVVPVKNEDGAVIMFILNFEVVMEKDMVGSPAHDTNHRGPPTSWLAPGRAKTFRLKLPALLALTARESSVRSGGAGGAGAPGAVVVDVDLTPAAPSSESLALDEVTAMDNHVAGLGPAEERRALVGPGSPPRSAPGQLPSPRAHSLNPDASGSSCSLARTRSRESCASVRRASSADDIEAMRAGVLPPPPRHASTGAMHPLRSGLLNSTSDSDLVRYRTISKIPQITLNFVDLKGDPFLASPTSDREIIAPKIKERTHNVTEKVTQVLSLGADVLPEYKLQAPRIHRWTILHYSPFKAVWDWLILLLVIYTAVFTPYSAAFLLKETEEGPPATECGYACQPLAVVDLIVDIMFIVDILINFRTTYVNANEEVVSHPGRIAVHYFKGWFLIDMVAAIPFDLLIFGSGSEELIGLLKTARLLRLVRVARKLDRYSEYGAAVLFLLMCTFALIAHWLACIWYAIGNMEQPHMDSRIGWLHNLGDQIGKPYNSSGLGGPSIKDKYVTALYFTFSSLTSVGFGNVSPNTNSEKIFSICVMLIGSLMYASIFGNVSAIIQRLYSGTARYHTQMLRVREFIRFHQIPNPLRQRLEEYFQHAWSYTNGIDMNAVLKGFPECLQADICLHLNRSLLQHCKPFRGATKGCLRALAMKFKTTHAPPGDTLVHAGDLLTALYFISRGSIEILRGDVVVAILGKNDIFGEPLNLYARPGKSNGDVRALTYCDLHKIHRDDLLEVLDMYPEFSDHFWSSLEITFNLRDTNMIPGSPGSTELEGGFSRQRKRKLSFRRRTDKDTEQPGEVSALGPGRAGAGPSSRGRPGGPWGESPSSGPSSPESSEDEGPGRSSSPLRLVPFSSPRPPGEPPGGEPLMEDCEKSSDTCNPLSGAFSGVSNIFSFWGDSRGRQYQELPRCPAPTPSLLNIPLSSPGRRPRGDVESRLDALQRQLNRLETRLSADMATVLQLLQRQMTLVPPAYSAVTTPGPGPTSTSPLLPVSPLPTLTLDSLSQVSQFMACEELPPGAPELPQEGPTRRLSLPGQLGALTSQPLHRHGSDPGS
UniProt Q9UM73, 19-1620, species assumed: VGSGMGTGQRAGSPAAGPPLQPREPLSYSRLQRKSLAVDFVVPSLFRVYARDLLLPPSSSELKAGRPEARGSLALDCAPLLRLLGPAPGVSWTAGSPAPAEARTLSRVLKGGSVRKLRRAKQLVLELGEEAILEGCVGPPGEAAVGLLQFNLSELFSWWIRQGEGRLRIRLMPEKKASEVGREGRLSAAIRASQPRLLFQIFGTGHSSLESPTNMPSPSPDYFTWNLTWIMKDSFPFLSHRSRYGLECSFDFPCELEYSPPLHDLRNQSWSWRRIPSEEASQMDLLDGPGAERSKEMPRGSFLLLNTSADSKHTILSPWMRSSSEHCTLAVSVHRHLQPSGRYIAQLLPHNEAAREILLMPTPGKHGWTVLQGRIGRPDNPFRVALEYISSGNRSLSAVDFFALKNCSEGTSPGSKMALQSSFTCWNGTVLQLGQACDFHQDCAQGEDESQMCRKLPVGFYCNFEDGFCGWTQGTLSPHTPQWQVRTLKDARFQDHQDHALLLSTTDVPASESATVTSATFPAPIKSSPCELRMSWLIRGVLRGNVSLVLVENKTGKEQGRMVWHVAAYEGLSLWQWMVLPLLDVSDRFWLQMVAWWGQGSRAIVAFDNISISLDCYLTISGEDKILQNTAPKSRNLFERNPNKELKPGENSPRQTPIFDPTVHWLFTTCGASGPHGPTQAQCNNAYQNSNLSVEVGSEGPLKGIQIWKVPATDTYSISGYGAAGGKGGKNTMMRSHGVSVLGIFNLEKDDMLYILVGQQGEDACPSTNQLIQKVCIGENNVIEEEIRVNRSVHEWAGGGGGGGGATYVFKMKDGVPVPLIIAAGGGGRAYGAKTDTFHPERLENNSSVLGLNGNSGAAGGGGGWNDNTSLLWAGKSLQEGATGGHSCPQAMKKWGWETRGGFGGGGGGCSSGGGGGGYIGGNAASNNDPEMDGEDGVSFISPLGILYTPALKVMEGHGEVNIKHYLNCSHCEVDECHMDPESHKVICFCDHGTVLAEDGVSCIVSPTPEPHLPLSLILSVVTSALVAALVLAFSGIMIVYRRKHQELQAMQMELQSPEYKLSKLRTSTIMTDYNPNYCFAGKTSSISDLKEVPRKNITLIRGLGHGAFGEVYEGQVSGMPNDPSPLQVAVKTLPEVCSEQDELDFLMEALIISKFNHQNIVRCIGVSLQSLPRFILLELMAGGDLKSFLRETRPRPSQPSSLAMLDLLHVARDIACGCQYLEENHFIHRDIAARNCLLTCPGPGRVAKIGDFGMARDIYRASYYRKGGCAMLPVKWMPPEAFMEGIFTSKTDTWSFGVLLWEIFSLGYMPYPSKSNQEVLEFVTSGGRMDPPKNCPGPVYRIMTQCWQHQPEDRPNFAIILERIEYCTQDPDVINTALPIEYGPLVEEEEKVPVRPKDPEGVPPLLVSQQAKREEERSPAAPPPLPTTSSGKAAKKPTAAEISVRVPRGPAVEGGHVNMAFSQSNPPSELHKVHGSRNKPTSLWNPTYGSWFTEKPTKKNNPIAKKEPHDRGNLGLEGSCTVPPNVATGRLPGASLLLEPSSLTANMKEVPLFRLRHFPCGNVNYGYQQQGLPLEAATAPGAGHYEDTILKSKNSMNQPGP
UniProt P28482, whole entry, looked up, species assumed: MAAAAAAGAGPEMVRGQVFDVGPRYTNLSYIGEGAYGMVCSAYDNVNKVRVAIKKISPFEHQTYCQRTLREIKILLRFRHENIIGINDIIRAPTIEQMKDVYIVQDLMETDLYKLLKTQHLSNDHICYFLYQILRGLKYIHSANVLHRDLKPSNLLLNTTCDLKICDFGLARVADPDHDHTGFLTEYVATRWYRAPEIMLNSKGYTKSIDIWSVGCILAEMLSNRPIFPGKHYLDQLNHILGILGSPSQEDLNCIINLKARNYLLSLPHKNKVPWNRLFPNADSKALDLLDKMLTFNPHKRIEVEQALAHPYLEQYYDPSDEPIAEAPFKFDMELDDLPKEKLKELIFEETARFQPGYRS
UniProt P12931: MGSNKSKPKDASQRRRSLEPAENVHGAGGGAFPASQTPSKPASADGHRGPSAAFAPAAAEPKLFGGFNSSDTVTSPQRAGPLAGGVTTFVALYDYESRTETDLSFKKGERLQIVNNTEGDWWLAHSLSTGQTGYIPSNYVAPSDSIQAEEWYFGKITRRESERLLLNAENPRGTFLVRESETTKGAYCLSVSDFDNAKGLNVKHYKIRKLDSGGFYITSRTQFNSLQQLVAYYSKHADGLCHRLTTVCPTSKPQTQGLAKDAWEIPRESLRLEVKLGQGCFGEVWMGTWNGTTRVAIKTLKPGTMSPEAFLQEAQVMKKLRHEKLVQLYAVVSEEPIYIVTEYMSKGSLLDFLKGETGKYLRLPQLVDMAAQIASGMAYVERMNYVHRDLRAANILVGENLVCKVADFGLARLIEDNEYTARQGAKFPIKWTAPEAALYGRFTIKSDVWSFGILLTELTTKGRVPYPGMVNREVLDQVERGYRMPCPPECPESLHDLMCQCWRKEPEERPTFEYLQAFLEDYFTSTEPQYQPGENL

Where two headings read alike, the source gives them in different places.

For one data set, the target named is CpCDPK1 (Cryptosporidium parvum (strain Iowa II), UniProt A3FQ16). Briefly: biochemical.
The target in the next data set is Abl (Homo sapiens (Human), UniProt P00519). Briefly: biochemical.
The target of another data set is TgCDPK1 (Toxoplasma gondii, UniProt Q9BJF5). Briefly: biochemical. The format is biochemical.
Another data set has as its system T. gondii. Briefly: Inhibition of T. gondii cell proliferation. The settings on record: Toxoplasma gondii, read-out: T. gondii EC50 (μM).
Another data set deals with hERG (Homo sapiens (Human), UniProt Q12809). Briefly: biochemical. In kind it is binding.
Another data set has as its target ALK (Homo sapiens (Human), UniProt Q9UM73). The experiment in a line: Kinase panel selectivity: ALK. In kind it is biochemical.
The target in another data set is Erk2 (Homo sapiens (Human), UniProt P28482). Briefly: Kinase panel selectivity: Erk2. In kind it is biochemical.
In the next data set the target is Src (Homo sapiens (Human), UniProt P12931). Briefly: biochemical. To be noted: Src IC50 (μM).
The next data set can be described thus: in vivo. The settings on record: mouse, 10 mg/kg.
[1] abbreviates: Table 1, KinaseGlo, Syntide 2 peptide substrate, read-out: CpCDPK1 IC50.
The mark [2] stands for this setting: Table 1, KinaseGlo, Syntide 2 peptide substrate, read-out: TgCDPK1 IC50.
The mark [3] stands for this setting: Table 4, read-out: Enzyme Inhibition (IC50, μM) Tg CDPK1.

As to `CCOc1ccc2cc(-c3nn(C(C)(C)C)c(N)c3C(N)=O)ccc2c1` [Compound 3, 5-amino-1-tert-butyl-3-(6-ethoxynaphthalen-2-yl)-1H-pyrazole-4-carboxamide], the IC50 turned out to be 0.004 µM at CpCDPK1 (setting [1]); 0.004 µM on CpCDPK1 (Table 4, read-out: Enzyme Inhibition (IC50, μM) Cp CDPK1); 5.1 µM against Abl.

For the compound `CCOc1ccc2cc(-c3nn(C(C)(C)C)cc3C(N)=O)ccc2c1` [Compound 5, 1-tert-butyl-3-(6-ethoxynaphthalen-2-yl)-1H-pyrazole-4-carboxamide], the IC50 at TgCDPK1 (read-out: TgCDPK1 IC50) and on CpCDPK1 (setting [1]) was 0.13 µM throughout. On to `CC(C)n1nc(-c2ccc3ccccc3c2)c(C(N)=O)c1N` [Compound 13, 5-amino-1-isopropyl-3-(naphthalen-2-yl)-1H-pyrazole-4-carboxamide], for which the IC50 on TgCDPK1 (setting [2]) was determined as 0.006 µM. Consider `CC(C)(C)Cn1nc(-c2ccc3ccccc3c2)c(C(N)=O)c1N` [Compound 19, 5-amino-3-(naphthalen-2-yl)-1-neopentyl-1H-pyrazole-4-carboxamide], for which the half-maximal effective concentration (EC50) in the data set on T. gondii is 0.32 µM.

`CC(C)(C)n1nc(-c2ccc3cc(O)ccc3c2)c(C(N)=O)c1N` [Compound 24, 5-amino-1-(tert-butyl)-3-(6-hydroxynaphthalen-2-yl)-1H-pyrazole-4-carboxamide]: the half-maximal inhibitory concentration (IC50) at TgCDPK1 (setting [2]) turned out to be 0.007 µM.

Regarding `COc1ccc2cc(-c3nn(C(C)(C)C)c(N)c3C(N)=O)ccc2c1` [Compound 25, 5-amino-1-(tert-butyl)-3-(6-methoxynaphthalen-2-yl)-1H-pyrazole-4-carboxamide], at Abl, the IC50 amounted to 4.6 µM. Turning to `CC(C)(C)n1nc(-c2cnc3ccccc3c2)c(C(N)=O)c1N` [Compound 38, 5-amino-1-(tert-butyl)-3-(quinolin-3-yl)-1H-pyrazole-4-carboxamide], in the data set on T. gondii, the EC50 came to 1.1 µM.

For the compound `CCOc1ccc2cc(-c3nn(C(C)(C)C)c(N)c3C(N)=O)cnc2c1` [Compound 39, 5-amino-1-(tert-butyl)-3-(7-ethoxyquinolin-3-yl)-1H-pyrazole-4-carboxamide], the 50% inhibitory concentration (IC50) at hERG, against Src (Table 2) and against Src (Table 3) was > 30 µM each time. In addition, the inhibition constant (Ki) on ALK is 5.79 µM; on Erk2 it was 6.6 µM. Regarding `COc1ccc2cc(-c3nn(C(C)(C)C)c(N)c3C(N)=O)cnc2c1` [Compound 1543, 5-amino-1-tert-butyl-3-(7-methoxyquinolin-3-yl)-1H-pyrazole-4-carboxamide], the 50% inhibitory concentration (IC50) at TgCDPK1 (setting [2]) and at TgCDPK1 (setting [3]) was 0.005 µM throughout. `Cc1ccc2cc(-c3nn(C(C)(C)C)c(N)c3C(N)=O)cnc2c1` [Compound 1544, 5-amino-1-tert-butyl-3-(7-methylquinolin-3-yl)-1H-pyrazole-4-carboxamide]: the IC50 at TgCDPK1 (setting [2]) stood at 0.016 µM. On the same count and under the same terms, the value for `CC(C)(C)n1nc(-c2cnc3cc(F)ccc3c2)c(C(N)=O)c1N` [Compound 1545, 5-amino-1-tert-butyl-3-(7-fluoroquinolin-3-yl)-1H-pyrazole-4-carboxamide] was 0.006 µM. Take `CC(C)(C)n1nc(-c2cnc3cc(Cl)ccc3c2)c(C(N)=O)c1N` [Compound 1554, 5-amino-1-tert-butyl-3-(7-chloroquinolin-3-yl)-1H-pyrazole-4-carboxamide]: at TgCDPK1 (setting [2]), the IC50 was determined as 0.036 µM. As to `CC(C)(C)n1nc(-c2cnc3cc(C(F)(F)F)ccc3c2)c(C(N)=O)c1N` [Compound 1555, 5-amino-1-tert-butyl-3-(7-(trifluoromethyl)quinolin-3-yl)-1H-pyrazole-4-carboxamide], the IC50 at TgCDPK1 (setting [2]) came out at 0.247 µM. On to `CC(C)Oc1ccc2cc(-c3nn(C(C)(C)C)c(N)c3C(N)=O)cnc2c1` [Compound 1569, 5-amino-1-(tert-butyl)-3-(7-isopropoxyquinolin-3-yl)-1H-pyrazole-4-carboxamide], for which the half-maximal effective concentration (EC50) with T. gondii came to 1.21 µM. With `CCOc1ccc2cc(-c3nn(C4CCCCC4)c(N)c3C(N)=O)cnc2c1` [Compound 1571, 5-amino-1-cyclohexyl-3-(7-ethoxyquinolin-3-yl)-1H-pyrazole-4-carboxamide], the results for the concentration for half-maximal inhibition (IC50) at TgCDPK1 (setting [2]) and on TgCDPK1 (setting [3]) were 0.008 µM and 0.007 µM, respectively. Besides, the time of peak concentration (Tmax) in “in vivo” is 1.33 h. In the case of `CCOc1ccc2cc(-c3nn(C(C)C)c(N)c3C(N)=O)cnc2c1` [Compound 1572, 5-amino-3-(7-ethoxyquinolin-3-yl)-1-isopropyl-1H-pyrazole-4-carboxamide], the concentration for half-maximal inhibition (IC50) on TgCDPK1 (setting [2]) was determined as 0.008 µM; on TgCDPK1 (setting [3]), 0.006 µM.

On to `CCOc1ccc2cc(-c3nn(CC4CCCCC4)c(N)c3C(N)=O)cnc2c1` [Compound 1574, 5-amino-1-(cyclohexylmethyl)-3-(7-ethoxyquinolin-3-yl)-1H-pyrazole-4-carboxamide], for which, on TgCDPK1 (setting [2]), the half-maximal inhibitory concentration (IC50) was determined as 0.08 µM.

Regarding `CCOc1ccc2cc(-c3nn(CC(F)(F)F)c(N)c3C(N)=O)cnc2c1` [Compound 1575, 5-amino-3-(7-ethoxyquinolin-3-yl)-1-(2,2,2-trifluoroethyl)-1H-pyrazole-4-carboxamide], the concentration for half-maximal inhibition (IC50) on TgCDPK1 (setting [2]) amounted to 0.013 µM. `CC(C)(C)n1nc(-c2cnc3cc(OCC4CC4)ccc3c2)c(C(N)=O)c1N` [Compound 1585, 5-amino-1-(tert-butyl)-3-(7-(cyclopropylmethoxy)quinolin-3-yl)-1H-pyrazole-4-carboxamide]: the half-maximal inhibitory concentration (IC50) on TgCDPK1 (setting [2]) was determined as 0.016 µM. Besides, the EC50 in the data set on T. gondii stood at 1.47 µM. Regarding `CC(C)(C)n1nc(-c2cnc3cc(OC4CC4)ccc3c2)c(C(N)=O)c1N` [Compound 1586, 5-amino-1-(tert-butyl)-3-(7-cyclopropoxyquinolin-3-yl)-1H-pyrazole-4-carboxamide], at TgCDPK1 (setting [2]), the IC50 came out at 0.01 µM. Still for that read-out and setting: the value for `CC(C)COc1ccc2cc(-c3nn(C(C)(C)C)c(N)c3C(N)=O)cnc2c1` [Compound 1588, 5-amino-1-(tert-butyl)-3-(7-isobutoxyquinolin-3-yl)-1H-pyrazole-4-carboxamide] was 0.086 µM. Turning to `CCOc1ccc2cc(-c3nn(CC(C)(C)C)c(N)c3C(N)=O)cnc2c1` [Compound 1591, 5-amino-3-(7-ethoxyquinolin-3-yl)-1-neopentyl-1H-pyrazole-4-carboxamide], the half-inhibitory concentration (IC50) on TgCDPK1 (setting [2]) is 0.021 µM; on CpCDPK1 (setting [1]), 0.007 µM. On to `CCc1ccc2cc(-c3nn(C(C)(C)C)c(N)c3C(N)=O)cnc2c1` [Compound 1592, 5-amino-1-(tert-butyl)-3-(7-ethylquinolin-3-yl)-1H-pyrazole-4-carboxamide], for which, on TgCDPK1 (setting [2]), the concentration for half-maximal inhibition (IC50) amounted to 0.115 µM. With `CCOc1ccc2cc(-c3nn(CC(C)(C)CO)c(N)c3C(N)=O)cnc2c1` [Compound 1596, 5-amino-3-(7-ethoxyquinolin-3-yl)-1-(3-hydroxy-2,2-dimethylpropyl)-1H-pyrazole-4-carboxamide], the half-maximal inhibitory concentration (IC50) on TgCDPK1 (setting [2]) amounted to 0.011 µM. The 50% effective concentration (EC50) in the data set with T. gondii was determined as 1.19 µM. `CCOc1ccc2cc(-c3nn(C(C)(C)C)c(N)c3C(N)=O)ccc2n1` [Compound 1597, 5-amino-1-(tert-butyl)-3-(2-ethoxyquinolin-6-yl)-1H-pyrazole-4-carboxamide]: the concentration for half-maximal inhibition (IC50) at TgCDPK1 (setting [2]) worked out at 0.006 µM. In the data set “in vivo”, the Tmax was 1.33 h.

As to `CCOc1ccc2cc(-c3nn(CC4CC4)c(N)c3C(N)=O)cnc2c1` [Compound 1598, 5-amino-1-(cyclopropylmethyl)-3-(7-ethoxyquinolin-3-yl)-1H-pyrazole-4-carboxamide], the EC50 in the data set with T. gondii was 1.21 µM.

Consider `CCOc1ccc2cc(-c3nn(C4CCCCCC4)c(N)c3C(N)=O)cnc2c1` [Compound 1604, 5-amino-1-cycloheptyl-3-(7-ethoxyquinolin-3-yl)-1H-pyrazole-4-carboxamide], for which the IC50 on TgCDPK1 (setting [2]) was found to be 0.006 µM. For the compound `CCOc1ccc2cc(-c3nn(C4CCCC4)c(N)c3C(N)=O)cnc2c1` [Compound 1605, 5-amino-1-cyclopentyl-3-(7-ethoxyquinolin-3-yl)-1H-pyrazole-4-carboxamide], the IC50 on TgCDPK1 (setting [2]) amounted to 0.011 µM. On the same count and under the same terms, the value for `CCOc1ccc2cc(-c3nn(C(C)CCO)c(N)c3C(N)=O)cnc2c1` (stereo not shown) [Compound 1608, 5-amino-3-(7-ethoxyquinolin-3-yl)-1-(4-hydroxybutan-2-yl)-1H-pyrazole-4-carboxamide] was 0.017 µM; that for `CCOc1ccc2cc(-c3nn(CC(C)(C)CO)c(N)c3C(N)=O)ccc2n1` [Compound 1622, 5-amino-3-(2-ethoxyquinolin-6-yl)-1-(3-hydroxy-2,2-dimethylpropyl)-1H-pyrazole-4-carboxamide] was 0.007 µM. For the compound `CCOc1ccc2cc(-c3nn(CC4CC4)c(N)c3C(N)=O)ccc2n1` [Compound 1635, 5-amino-1-(cyclopropylmethyl)-3-(2-ethoxyquinolin-6-yl)-1H-pyrazole-4-carboxamide], in the data set with T. gondii, the EC50 is 0.48 µM.

For `CC(C)(CO)Cn1nc(-c2ccc3nc(OC4CCC4)ccc3c2)c(C(N)=O)c1N` [Compound 1645, 5-amino-3-(2-cyclobutoxyquinolin-6-yl)-1-(3-hydroxy-2,2-dimethylpropyl)-1H-pyrazole-4-carboxamide], on TgCDPK1 (setting [2]), the IC50 is 0.01 µM.

For the compound `CCOc1ccc2cc(-c3nn(C4CCC4)c(N)c3C(N)=O)cnc2c1` [Compound 1652], the IC50 at TgCDPK1 (setting [2]) worked out at 0.012 µM; on CpCDPK1 (setting [1]), 0.003 µM.
